Legend:
[1] = molecular target: T1, V281M OXTR (Homo sapiens, UniProt P30559, V281M); experiment: Oxytocin-induced IP1 production in HEK293T cells transfected with V281M OXTR; type: cell-based; conditions: 10 μM, 16 h, vehicle-treated V281M was 80% of WT
T1 construct: expressed in transfected cells; host or cells: HEK293T (transient)

Amino acid sequences for entries named in this document (tags omitted).
UniProt P30559, whole entry V281M: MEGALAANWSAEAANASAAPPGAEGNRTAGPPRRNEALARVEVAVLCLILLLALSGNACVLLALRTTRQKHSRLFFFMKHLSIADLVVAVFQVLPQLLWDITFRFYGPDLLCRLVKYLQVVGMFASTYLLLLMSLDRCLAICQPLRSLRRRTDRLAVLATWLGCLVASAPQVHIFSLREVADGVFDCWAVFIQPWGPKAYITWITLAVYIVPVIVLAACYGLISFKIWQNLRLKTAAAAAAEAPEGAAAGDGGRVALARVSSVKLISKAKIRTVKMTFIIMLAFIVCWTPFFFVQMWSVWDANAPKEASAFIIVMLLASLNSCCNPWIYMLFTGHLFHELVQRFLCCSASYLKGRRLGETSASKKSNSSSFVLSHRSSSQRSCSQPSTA

[2] = molecular target: V281M OXTR-GFP (Homo sapiens, UniProt P30559, V281M); conditions: stably transfected HEK293; for colocalization of V281M OXTR-GFP with PDI (ER) and golgin-97 (Golgi): 10 μM, Pearson's r
[3] = test system: OXTR; experiment: Cell surface OXTR in transfected HEK293T cells, OXTR form not stated; type: cell-based, human; conditions: WT or V281M not stated, 10 μM, 16 h

With `COc1cc(OC2CCN(C(C)=O)CC2)ccc1C(=O)N1CCC(N2C(=O)OCc3ccccc32)CC1` [L371,257, 1-[1-[4-(1-acetylpiperidin-4-yl)oxy-2-methoxybenzoyl]piperidin-4-yl]-4H-3,1-benzoxazin-2-one] the “maximal oxytocin-induced IP1 production compared with WT OXTR-expressing cells” value [1] was “abolished this difference”, the “colocalization of V281M OXTR-GFP with PDI (ER) and golgin-97 (Golgi)” value [2] was “decreased” and the “effect on surface OXTR in transfected HEK293T cells” value [3] was “greatest effect of all the candidate compounds”.

`COc1ccc(S(=O)(=O)N2c3ccc(Cl)cc3[C@](O)(c3ccccc3Cl)[C@@H]2C(=O)N2CCC[C@H]2C(N)=O)cc1OC` [SR49059, (2S)-1-[[(2R,3S)-5-Chloro-3-(2-chlorophenyl)-1-[(3,4-dimethoxyphenyl)sulfonyl]-2,3-dihydro-3-hydroxy-1H-indol-2-yl]carbonyl]-2-pyrrolidinecarboxamide] was tested, and the “cell surface localization of V281M OXTR-GFP” value ([2]; 10 μM overnight) was “improved” and the “colocalization of V281M OXTR-GFP with PDI (ER) and golgin-97 (Golgi)” value [2] was “decreased”.

In the case of `Cc1cc(C(=O)N2Cc3cnn(C)c3Nc3ccccc32)ccc1CNC(=O)N1CCN(Cc2cc(O)cc(O)c2)CC1` [WAY26746, 4-(3,5-Dihydroxybenzyl)-N-(2-methyl-4-[(1-methyl-4,10-dihydropyrazolo[3,4-b][1,5]benzodiazepin-5(1H)-yl)carbonyl]benzyl)piperazine-1-carboxamide], the “effect on surface OXTR in transfected HEK293T cells” value [3] is reported as “decreased”.
